Earlier results as cited in PMC3138524 (European journal of pharmacology, 2011).

By UniProt entry, the sequences of proteins in these tests, tags left out.
UniProt P32245, whole entry: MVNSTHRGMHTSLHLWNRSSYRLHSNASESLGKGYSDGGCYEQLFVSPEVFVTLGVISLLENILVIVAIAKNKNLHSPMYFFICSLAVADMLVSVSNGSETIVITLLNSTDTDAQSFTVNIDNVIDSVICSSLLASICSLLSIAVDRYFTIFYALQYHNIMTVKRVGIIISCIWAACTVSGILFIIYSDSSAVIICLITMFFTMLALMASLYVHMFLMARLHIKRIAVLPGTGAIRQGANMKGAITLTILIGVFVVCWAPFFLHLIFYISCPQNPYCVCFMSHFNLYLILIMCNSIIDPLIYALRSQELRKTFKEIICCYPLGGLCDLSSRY

Key:
MC4R [1] = target: T1, MC4R (Homo sapiens, UniProt P32245); assay type: cell-based, HEK293; conditions: read-out: Binding Affinities IC50; n = 2
MC4R [2] = target: T1, MC4R; assay type: cell-based, HEK293; conditions: read-out: Functional Assays cAMP EC50; n = 2

Substance: Tyr-Val-Nle-Gly-His-D-Nal(2′)-Arg-Trp-Asp-Arg-Phe-Gly-NH2 [compound 1]
- IC50 (MC4R [1]): 2.5 nM
- EC50 (MC4R [2]): 24 nM
